Reference: ChEMBL document CHEMBL1131192, “Conformational analysis and automated receptor docking of selective arylacetamide-based kappa-opioid agonists” (1998)
Activity calls are given as the source filed them. The calls are words filed in the database; no cut-off is given here.

What was measured:
[1] = target: Kappa-type opioid receptor (Homo sapiens) (UniProt P41145); assay: Compound was tested for the change in the Opioid receptor kappa 1 binding affinity (Ki(mut)/Ki(wild) for D138A point mutations; No binding
[2] = target: Kappa-type opioid receptor (Homo sapiens) (UniProt P41145); assay: Compound was tested for the change in the Opioid receptor kappa 1 binding affinity (Ki(mut)/Ki(wild) for D105N point mutations; No binding
[3] = test system: Kappa-type opioid receptor (Homo sapiens), P41145 [UNDEFINED MUTATION]; assay: Compound was tested for the change in the Opioid receptor kappa 1 binding affinity (Ki(mut)/Ki(wild) for S123A point mutations.
[4] = test system: Kappa-type opioid receptor (Homo sapiens), P41145 [UNDEFINED MUTATION]; assay: Compound was tested for the change in the Opioid receptor kappa 1 binding affinity (Ki(mut)/Ki(wild) for I294A point mutations.
[5] = test system: Kappa-type opioid receptor (Homo sapiens), P41145 [UNDEFINED MUTATION]; assay: Compound was tested for the change in the Opioid receptor kappa 1 binding affinity (Ki(mut)/Ki(wild) for G319V point mutations.
[6] = test system: Kappa-type opioid receptor (Homo sapiens), P41145 [UNDEFINED MUTATION]; assay: Compound was tested for the change in the Opioid receptor kappa 1 binding affinity (Ki(mut)/Ki(wild) for T109A point mutations.
[7] = test system: Kappa-type opioid receptor (Homo sapiens), P41145 [UNDEFINED MUTATION]; assay: Compound was tested for the change in the Opioid receptor kappa 1 binding affinity (Ki(mut)/Ki(wild) for Y119A point mutations.
[8] = test system: Kappa-type opioid receptor (Homo sapiens), P41145 [UNDEFINED MUTATION]; assay: Compound was tested for the change in the Opioid receptor kappa 1 binding affinity (Ki(mut)/Ki(wild) for A298H point mutations.
[9] = test system: Kappa-type opioid receptor (Homo sapiens), P41145 [UNDEFINED MUTATION]; assay: Compound was tested for the change in the Opioid receptor kappa 1 binding affinity (Ki(mut)/Ki(wild) for D138A point mutations.
[10] = test system: Kappa-type opioid receptor (Homo sapiens), P41145 [UNDEFINED MUTATION]; assay: Compound was tested for the change in the Opioid receptor kappa 1 binding affinity (Ki(mut)/Ki(wild) for D105N point mutations.
[11] = test system: Kappa-type opioid receptor (Homo sapiens), P41145 [UNDEFINED MUTATION]; assay: Compound was tested for the change in the Opioid receptor kappa 1 binding affinity (Ki(mut)/Ki(wild) for E297A point mutations.
[12] = test system: Kappa-type opioid receptor (Homo sapiens), P41145 [UNDEFINED MUTATION]; assay: Compound was tested for the change in the Opioid receptor kappa 1 binding affinity (Ki(mut)/Ki(wild) for I294K point mutations.
[13] = test system: Kappa-type opioid receptor (Homo sapiens), P41145 [UNDEFINED MUTATION]; assay: Compound was tested for the change in the Opioid receptor kappa 1 binding affinity (Ki(mut)/Ki(wild) for H291A point mutations.

Row | Compound | Ratio [1] | Ratio [2] | Ratio [3] | Ratio [4] | Ratio [5] | Ratio [6] | Ratio [7] | Ratio [8] | Ratio [9] | Ratio [10] | Ratio [11] | Ratio [12] | Ratio [13]
1 | CN(C(=O)Cc1ccccc1)[C@H]1CC[C@@]2(CCCO2)C[C@@H]1N1CCCC1 | inactive | inactive | – | – | – | – | – | – | – | – | – | – | –
2 | CN(C(=O)Cc1cccc2occc12)[C@H]1CC[C@@]2(CCCO2)C[C@@H]1N1CCCC1 | – | – | 0.6 | 9.8 | 6.3 | 1.2 | 1.9 | 0.2 | 110 | 0.4 | 0.7 | 160 | 6.6
3 | CN(C(=O)Cc1ccc(Cl)c(Cl)c1)C1CCCCC1N1CCCC1 (configuration not stated) | inactive | – | – | – | – | – | – | – | – | 28 | – | – | –
4 | CN(C(=O)Cc1ccccc1)[C@H](CN1CCCC1)c1ccccc1 | – | – | – | 1.5 | 28 | – | – | 0.1 | 45 | – | 0.3 | 18 | 2.4
